Experimental data reported in IntAct's records for PubMed 17054981.

B1: Nucleotide-binding oligomerization domain-containing protein 1 (Homo sapiens), Q9Y239 (parent)
chain: MEEQGHSEMEIIPSESHPHIQLLKSNRELLVTHIRNTQCLVDNLLKNDYFSAEDAEIVCACPTQPDKVRKILDLVQSKGEEVSEFFLYLLQQLADAYVDLRPWLLEIGFSPSLLTQSKVVVNTDPVSRYTQQLRHHLGRDSKFVLCYAQKEELLLEEIYMDTIMELVGFSNESLGSLNSLACLLDHTTGILNEQGETIFILGDAGVGKSMLLQRLQSLWATGRLDAGVKFFFHFRCRMFSCFKESDRLCLQDLLFKHYCYPERDPEEVFAFLLRFPHVALFTFDGLDELHSDLDLSRVPDSSCPWEPAHPLVLLANLLSGKLLKGASKLLTARTGIEVPRQFLRKKVLLRGFSPSHLRAYARRMFPERALQDRLLSQLEANPNLCSLCSVPLFCWIIFRCFQHFRAAFEGSPQLPDCTMTLTDVFLLVTEVHLNRMQPSSLVQRNTRSPVETLHAGRDTLCSLGQVAHRGMEKSLFVFTQEEVQASGLQERDMQLGFLRALPELGPGGDQQSYEFFHLTLQAFFTAFFLVLDDRVGTQELLRFFQEWMPPAGAATTSCYPPFLPFQCLQGSGPAREDLFKNKDHFQFTNLFLCGLLSKAKQKLLRHLVPAAALRRKRKALWAHLFSSLRGYLKSLPRVQVESFNQVQAMPTFIWMLRCIYETQSQKVGQLAARGICANYLKLTYCNACSADCSALSFVLHHFPKRLALDLDNNNLNDYGVRELQPCFSRLTVLRLSVNQITDGGVKVLSEELTKYKIVTYLGLYNNQITDVGARYVTKILDECKGLTHLKLGKNKITSEGGKYLALAVKNSKSISEVGMWGNQVGDEGAKAFAEALRNHPSLTTLSLASNGISTEGGKSLARALQQNTSLEILWLTQNELNDEVAESLAEMLKVNQTLKHLWLIQNQITAKGTAQLADALQSNTGITEICLNGNLIKPEEAKVYEDEKRIICF

Variants of: B1
Conditions: with ripk2_human RIPK2, O43353

Variant	effect of a mutation on the interaction
D54K	disrupting interaction
V41A	decreasing interaction
E53K	disrupting interaction
R69E	decreasing interaction
E56K	disrupting interaction
